From patent US20240287154A1, “MC3R AGONIST PEPTIDES” (The Regents of the University of Michigan, priority 2021, published 2024)

Amino acid sequences for entries named in this document (tags omitted). A change or cut given only in a name is not applied to a line headed by its entry.
UniProt P41968: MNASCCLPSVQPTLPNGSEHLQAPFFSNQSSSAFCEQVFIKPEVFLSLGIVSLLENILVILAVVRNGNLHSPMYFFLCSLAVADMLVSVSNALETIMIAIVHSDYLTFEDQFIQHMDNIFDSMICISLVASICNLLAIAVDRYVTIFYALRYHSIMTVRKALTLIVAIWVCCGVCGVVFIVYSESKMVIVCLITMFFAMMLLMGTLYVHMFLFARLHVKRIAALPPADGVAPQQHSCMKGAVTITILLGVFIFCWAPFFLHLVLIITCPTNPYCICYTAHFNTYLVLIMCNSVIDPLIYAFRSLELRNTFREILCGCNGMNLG

Molecular target: human MC3R (human, UniProt P41968 1-323)
Test: cell-based or functional assay

## YVXGHFRWDRFG (Nle at 3; D-Phe at 6; D-Trp at 8) [CTX-1102]
  MC3R cAMP (EC50): 5 nM
